{"source": "patent US20040006018A1", "key": {"[1]": {"target": "LIF receptor on neonatal rat primary cardiac myocytes (rat) (UniProt O70535)", "test": "cell-based or functional assay", "conditions": "scale: score"}, "[2]": {"target": "Mouse LIF receptor on mouse M1 cells (LIF receptor complex with gp130) (mouse) (UniProt P42703)", "test": "cell-based or functional assay"}, "[3]": {"target": "Mouse LIF receptor on mouse M1 cells (LIF receptor complex with gp130) (mouse) (UniProt P42703)", "test": "Scatchard analysis of binding to M1 cells, summary over both labeled ligands"}, "[4]": {"target": "Mouse LIF receptor on mouse M1 cells (LIF receptor complex with gp130) (mouse) (UniProt P42703)", "test": "0.042 nM 125I-mouse LIF on M1 cells competed by unlabeled LIF, Scatchard, one-site fit"}, "[5]": {"target": "Mouse LIF receptor on mouse M1 cells (LIF receptor complex with gp130) (mouse) (UniProt P42703)", "test": "0.047 nM 125I-mouse CT-1 on M1 cells competed by unlabeled LIF, Scatchard, one-site fit"}}, "data": [{"substance": "Mouse LIF (leukemia inhibitory factor) (from UniProt P09056 24-203) (ligand)", "values": [{"measurement": "Hypertrophy Score of neonatal rat cardiac myocytes at 0.05 nM", "setting": "[1]", "result": 4}, {"measurement": "Hypertrophy Score of neonatal rat cardiac myocytes at 0.25 nM", "setting": "[1]", "result": 5.5}, {"measurement": "Hypertrophy Score of neonatal rat cardiac myocytes at 2.5 nM", "setting": "[1]", "result": 6}, {"measurement": "EC50 of inhibition of 3H-thymidine incorporation in the mouse myeloid leukemia cell line, M1", "setting": "[2]", "result": 0.048, "unit": "nM"}, {"measurement": "sites per cell (sites per cell)", "setting": "[3]", "result": 1500}, {"measurement": "sites/cell", "setting": "[4]", "result": 1200, "unit": "sites/cell"}, {"measurement": "sites/cell", "setting": "[5]", "result": 1800, "unit": "sites/cell"}]}]}
